Values of other authors in patent publication US10118955B2, “C-terminal fragments of glucagon-like peptide-1 (GLP-1)” (The General Hospital Corporation, priority 2008, dated 2018).

The chains behind the UniProt entries cited, without tags or fusion partners. Residues count along the entry.
UniProt P43220, 24-463: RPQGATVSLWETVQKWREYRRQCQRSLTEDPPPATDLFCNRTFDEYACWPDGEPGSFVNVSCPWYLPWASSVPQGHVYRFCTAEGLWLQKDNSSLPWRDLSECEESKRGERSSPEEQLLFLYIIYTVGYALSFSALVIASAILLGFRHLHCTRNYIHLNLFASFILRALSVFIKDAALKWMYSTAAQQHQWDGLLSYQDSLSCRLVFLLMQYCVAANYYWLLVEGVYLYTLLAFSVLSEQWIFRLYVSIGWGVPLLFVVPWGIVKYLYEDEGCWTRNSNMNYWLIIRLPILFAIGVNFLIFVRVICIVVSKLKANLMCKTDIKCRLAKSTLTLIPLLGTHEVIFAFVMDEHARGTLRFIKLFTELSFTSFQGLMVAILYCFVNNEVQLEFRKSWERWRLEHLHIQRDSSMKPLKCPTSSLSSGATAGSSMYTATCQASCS

Molecular target: GLP-1 GPCR (Homo sapiens, UniProt P43220)
Conditions: (nM); cited from earlier work

Substance | binding affinity to the GLP-1 GPCR
GLP-1(7-37) | high affinity
GLP-1(7-36)amide | high affinity
